Experimental data reported in patent EP1038864A1, “NOVEL METALLOPROTEINASE INHIBITORS” (FUJI YAKUHIN KOGYO KABUSHIKI KAISHA, priority 1997, dated 1999).

By UniProt entry, the sequences of proteins in these tests, tags left out. Residues count along the entry.
UniProt P78536, 215-824: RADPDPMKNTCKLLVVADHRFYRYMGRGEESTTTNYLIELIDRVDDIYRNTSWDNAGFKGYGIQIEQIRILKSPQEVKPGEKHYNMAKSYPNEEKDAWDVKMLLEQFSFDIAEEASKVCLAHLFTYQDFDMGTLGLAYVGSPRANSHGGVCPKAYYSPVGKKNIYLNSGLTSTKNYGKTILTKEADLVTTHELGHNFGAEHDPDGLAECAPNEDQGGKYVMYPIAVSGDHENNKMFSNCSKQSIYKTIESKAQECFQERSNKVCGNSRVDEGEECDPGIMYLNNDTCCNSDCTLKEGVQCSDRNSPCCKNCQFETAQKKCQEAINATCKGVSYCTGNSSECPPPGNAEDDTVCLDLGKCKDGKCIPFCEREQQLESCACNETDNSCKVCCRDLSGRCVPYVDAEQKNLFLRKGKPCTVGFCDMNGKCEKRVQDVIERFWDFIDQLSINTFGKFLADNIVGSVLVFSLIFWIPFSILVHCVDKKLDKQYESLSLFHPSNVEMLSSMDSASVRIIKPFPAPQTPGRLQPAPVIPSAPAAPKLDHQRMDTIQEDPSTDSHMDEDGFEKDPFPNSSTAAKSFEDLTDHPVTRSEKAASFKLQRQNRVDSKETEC

Biological target: TNF-α Convertase (Homo sapiens, UniProt P78536)
Test: Assay for inhibition of TNF-α production in LPS-stimulated, PMA-differentiated U937 cells

- IC50: 3.3 µM
SMILES: CNC(=O)[C@@H](NC(=O)[C@H](CC(C)C)[C@H](O)C(=O)NO)C(C)(C)C [Reference Compound No. 2, reference compound]
